## Reported melting point values for industrial, environmental and drug-like chemicals

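The OPERA project collected these measurements from public sources as training and test data for property models. One number stands for a compound and property, with no spread given. How each value was measured is not recorded, so precision varies. The measured form (salt, isomer or mixture) is not always the one drawn. Unmarked limits or estimates from the upstream databases cannot be ruled out.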

The melting point is given in degrees Celsius. The databases behind each value are named after "via".

{"smiles": "CCCCc1ccc(CC(=O)O)cc1", "name": "(4-butylphenyl)acetic acid", "mp (°C)": "79", "via": "OCHEM"}
{"smiles": "CCCCCCCCCCCCN1CCCC1=O", "name": "1-Dodecyl-2-pyrrolidinone", "mp (°C)": "-4", "via": "eChemPortal"}
{"smiles": "C[Si](C)(C)O", "name": "Trimethylsilanol", "mp (°C)": "-7.45", "via": "eChemPortal"}
{"smiles": "CC1Oc2ccccc2NC1=O", "stereo": "stereo not given", "name": "2-methyl-2H-1,4-benzoxazin-3(4H)-one", "mp (°C)": "143", "via": "OCHEM"}
{"smiles": "CCCOc1ccc(Br)cc1C=O", "name": "5-bromo-2-propoxybenzaldehyde", "mp (°C)": "48", "via": "OCHEM"}
{"smiles": "COc1ccc(-c2csc(C)n2)cc1", "name": "4-(4-Methoxy-phenyl)-2-methyl-thiazole", "mp (°C)": "56", "via": "OCHEM"}
{"smiles": "Cc1nc2cc(Cl)ccc2c(=O)n1N", "name": "3-amino-7-chloro-2-methylquinazolin-4(3H)-one", "mp (°C)": "203", "via": "OCHEM"}
{"smiles": "COc1ccccc1N1CC(C(=O)O)CC1=O", "stereo": "stereo not given", "name": "1-(2-methoxyphenyl)-5-oxopyrrolidine-3-carboxylic acid", "mp (°C)": "140", "via": "OCHEM"}
{"smiles": "CSc1ccc(-c2csc(N)n2)cc1", "name": "4-[4-(methylthio)phenyl]-1,3-thiazol-2-amine", "mp (°C)": "220", "via": "OCHEM"}
{"smiles": "Cc1cc(C=O)c(C)n1-c1cccc([N+](=O)[O-])c1", "name": "2,5-Dimethyl-1-(3-nitrophenyl)-1H-pyrrole-3-carbaldehyde", "mp (°C)": "150", "via": "OCHEM"}
{"smiles": "O=C1CCOc2ccc(Br)cc21", "name": "6-bromochroman-4-one", "mp (°C)": "74", "via": "OCHEM"}
{"smiles": "Nc1ncccc1Cl", "name": "2-Amino-3-chloropyridine", "mp (°C)": "60.5", "via": "OCHEM"}
{"smiles": "C=C(C)C1CC=C(CO)CC1", "stereo": "stereo not given", "name": "4-Isopropenylcyclohex-1-en-1-ylmethanol", "mp (°C)": "244", "via": "PubChem"}
{"smiles": "Cc1nc2cc(C(=O)O)ccc2n1-c1ccccc1", "name": "2-Methyl-1-phenyl-1H-benzimidazole-5-carboxylic acid", "mp (°C)": "211", "via": "OCHEM"}
{"smiles": "C=COC(=O)CCCCCCCCCCC", "name": "Dodecanoic acid, ethenyl ester", "mp (°C)": "3.85", "via": "eChemPortal"}
{"smiles": "CC(C)C(Br)C(=O)c1ccccc1", "stereo": "stereo not given", "name": "2-bromo-3-methyl-1-phenylbutan-1-one", "mp (°C)": "50", "via": "OCHEM"}
{"smiles": "CC(=O)Oc1ccccc1C(=O)OCC(=O)N(C)CCO", "mp (°C)": "70.5", "via": "OCHEM"}
{"smiles": "COc1cc(N)ccc1N", "name": "1,4-Benzenediamine, 2-methoxy-", "mp (°C)": "107", "via": "PubChem"}
{"smiles": "ClCc1nc(-c2ccccc2Cl)no1", "name": "5-(Chloromethyl)-3-(2-chlorophenyl)-1,2,4-oxadiazole", "mp (°C)": "38", "via": "OCHEM"}
{"smiles": "Cc1ccc2oc(-c3ccc(C=Cc4ccc(-c5nc6cc(C)ccc6o5)cc4)cc3)nc2c1", "mp (°C)": "282", "via": "eChemPortal"}
{"smiles": "C(=Cc1ccccc1)C=NCCCCCCN=CC=Cc1ccccc1", "name": "N,N'-Dicinnamylidene-1,6-hexanediamine", "mp (°C)": "90.37", "via": "eChemPortal"}
{"smiles": "COc1ccc(Oc2ccc(C=O)cc2[N+](=O)[O-])cc1", "name": "4-(4-Methoxyphenoxy)-3-nitrobenzaldehyde", "mp (°C)": "68", "via": "OCHEM"}
{"smiles": "Cc1cc(C(C)(C)C)cc(C)c1CC#N", "name": "Benzeneacetonitrile, 4-(1,1-dimethylethyl)-2,6-dimethyl-", "mp (°C)": "85", "via": "OCHEM"}
{"smiles": "CCCCCCCCCCCCCCCCCCCCCCOC(=O)c1ccc(O)cc1", "name": "Docosyl 4-hydroxybenzoate", "mp (°C)": "78", "via": "eChemPortal"}
{"smiles": "CCCCCCCCCCCC(=O)N(C)CCS(=O)(=O)[O-].[Na+]", "name": "Sodium N-lauroyl-N-methyltaurate", "mp (°C)": "192.5", "via": "eChemPortal"}
{"smiles": "C=CC(C)C#N", "stereo": "stereo not given", "name": "2-Methyl-3-butenenitrile", "mp (°C)": "-123", "via": "OFMPub, eChemPortal"}
{"smiles": "Nc1n[nH]c(-c2cccs2)n1", "name": "5-(Thiophen-2-yl)-1H-1,2,4-triazol-3-amine", "mp (°C)": "203", "via": "OCHEM"}
{"smiles": "O=C(NC1CC1)c1ccc(Cl)c([N+](=O)[O-])c1", "name": "4-chloro-n-cyclopropyl-3-nitrobenzamide", "mp (°C)": "131", "via": "OCHEM"}
{"smiles": "NC(=O)c1cc[n+](CC2=C(C(=O)[O-])N3C(=O)[C@@H](NC(=O)Cc4cccs4)[C@H]3SC2)cc1", "name": "Cefalonium", "mp (°C)": "148", "via": "OCHEM"}
{"smiles": "CC(C)CC(=O)OCc1ccccc1", "name": "Benzyl 3-methylbutanoate", "mp (°C)": "-10.04", "via": "eChemPortal"}
{"smiles": "Cc1cc(Cl)cc2c1C(=O)/C(=C1/Sc3cc(Cl)cc(C)c3C1=O)S2", "name": "D&C Red No. 30", "mp (°C)": "378", "via": "eChemPortal"}
{"smiles": "O=C1NC(=O)C(Cc2ccccc2)(c2ccccc2)N1", "stereo": "stereo not given", "name": "5-benzyl-5-phenylimidazolidine-2,4-dione", "mp (°C)": "210", "via": "OCHEM"}

Extract of 5 entries:

{"smiles": "CCCCc1ccc(CC(=O)O)cc1", "name": "(4-butylphenyl)acetic acid", "mp (°C)": "79", "via": "OCHEM"}
{"smiles": "Cc1nc2cc(C(=O)O)ccc2n1-c1ccccc1", "name": "2-Methyl-1-phenyl-1H-benzimidazole-5-carboxylic acid", "mp (°C)": "211", "via": "OCHEM"}
{"smiles": "Cc1cc(Cl)cc2c1C(=O)/C(=C1/Sc3cc(Cl)cc(C)c3C1=O)S2", "name": "D&C Red No. 30", "mp (°C)": "378", "via": "eChemPortal"}
{"smiles": "CSc1ccc(-c2csc(N)n2)cc1", "name": "4-[4-(methylthio)phenyl]-1,3-thiazol-2-amine", "mp (°C)": "220", "via": "OCHEM"}
{"smiles": "O=C1CCOc2ccc(Br)cc21", "name": "6-bromochroman-4-one", "mp (°C)": "74", "via": "OCHEM"}

Values as listed in the OPERA 2.9 repository of K. Mansouri.